miR-21 reporter – raises the signal of a miR-21 reporter | HeLa miR-21 FLuc reporter, luciferase, 48 h | Potency, µM (highest dose often 38.3 µM), inactives show at the highest dose reporter change, positive = more light | 340,000 tested, under 10 active | AID 2288; active = well fitted rising curve with a large enough effect; inconclusive = small, poorly fitted or top-dose-only effect; inactive = no such curve, though single readings can be large or run the other way;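 note: % of control where 0% means no effect; miR-21 action dims this reporter so a rising signal means less miR-21 action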
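Luminescence from a firefly luciferase reporter carrying a miR-21 binding site downstream, stably expressed under a CMV promoter in HeLa cells that make miR-21 endogenously, reports miRNA modulation after 48 h compound exposure up to approximately 40uM final.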
Nrf2 inh – inhibitors of Nrf2 signaling | A549 ARE-Fluc reporter, luciferase luminescence, 18-24 h | Potency, µM (highest dose often 46 µM), without a hit: at the top dose activity change, negative = inhibition, usual class: inhibitors | 360,000 tested, 2.1% active | AID 504444; note: potency is the fitted concentration of half-maximal effect; % is set by controls: 0 for no effect and ±100 for the full control effect; nearly all actives have a fitted effect of over 60% in size
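In this cell-based qHTS, ARE-driven firefly luciferase in A549 cells reports Nrf2 activity; the luminescent signal after BugLite lysis is the measured value, with a prior CellTiter-Fluor read for cell health.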
B2AR arrestin – recruits beta-arrestin to the human beta2-adrenergic receptor | 330,000 tested, 0.02% active | AID 492947 | Potency, µM (doses to about 46.1 µM), for the others: at the highest dose activation, actives largely listed as activators | beta-arrestin recruitment to beta2AR, cell-based reporter;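 note: potency is the fitted concentration of half-maximal effect; 0% = DMSO controls and full agonism = EC100 isoproterenol or metaproterenol; nearly all actives have a fitted effect of over 65% in size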
Nrf2 activator – activates Nrf2 signaling; AREc32 ARE-luciferase reporter (MCF7-derived line), luminescence, 24 h; Potency, µM (highest dose often 46.1 µM), inactives show at the highest dose activation, hits mostly activators; 410,000 tested, 0.31% active; AID 624171; note: potency is the fitted concentration of half-maximal effect; % of control where 0% means no effect; nearly all actives have a fitted effect of over 65% in size
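Nrf2 activation is followed as ARE-luciferase induction in the AREc32 line after one day of compound treatment; luminescence is read with Steady-Glo.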
A549 tox – A549 cytotoxicity, counter-screen for Nrf2 inhibitors. Potency, µM (top dose mostly 46 µM), for inactives: at the top dose activity change, negative = cytotoxicity, hits mostly inhibitors. 390,000 tested, 0.16% active. A549 ARE-Fluc cells, CellTiter-Fluor viability, 18-24 h; note: potency is the fitted concentration of half-maximal effect; % is set by controls: 0 for no effect and ±100 for the full control effect
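Cytotoxicity counterscreen: CellTiter-Fluor fluorescence was measured in A549 ARE_Fluc cells after 18-24 h of compound exposure in a concentration series. The subsequent BugLite luminescent read reports ARE-luciferase activity.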
Starred values were filed as active, the others as inactive; ? = inconclusive; . = not tested or not shown. An excerpt weighted towards active compounds, which were near 2.2% of everything screened. Unless noted, calls come from the whole dose curve; as a rule, active = well fitted curve in the direction sought with a large enough effect; inconclusive = small, poorly fitted or top-dose-only effect, or another doubt; inactive = no such curve, though single readings can be large; an effect the other way counts as inactive or inconclusive.

Start of the listing, in advance (6 entries):
SMILES	miR-21 reporter	Nrf2 inh	B2AR arrestin	Nrf2 activator	A549 tox
NC(=O)[C@H]1CC2(CC(c3cccc(NC(=O)COc4ccc(Cl)cc4)c3)=NO2)CN1C(=O)c1ccc(Cl)cc1 (stereo partly specified)	?	26µM*	0%	-3%	?
CC1Cc2ccccc2N1C(=O)CN1CCC(n2nnc3cc(C(F)(F)F)ccc32)CC1 (stereo unspecified)	?	16µM*	-1%	4%	?
COC(=O)c1ccccc1NC(=O)CN1CCC(n2nnc3cc(C(F)(F)F)ccc32)CC1	-1%	-6%	0%	4%	6%
Cc1cc(-c2ccccc2)nc(N/N=C/c2ccccc2)n1	-18%	?	-1%	0%	2%
COc1ccc(/C=N/Nc2nc(C)cc(-c3ccccc3)n2)cc1OC	4%	23µM*	0%	0%	-7%
O=C(CN1CCCN(Cc2ccccc2Cl)S1(=O)=O)NCc1ccccc1	-4%	14%	.	0%	3%

The whole of this part, repeating the preview:
SMILES	miR-21 reporter	Nrf2 inh	B2AR arrestin	Nrf2 activator	A549 tox
NC(=O)[C@H]1CC2(CC(c3cccc(NC(=O)COc4ccc(Cl)cc4)c3)=NO2)CN1C(=O)c1ccc(Cl)cc1 (stereo partly specified)	?	26µM*	0%	-3%	?
CC1Cc2ccccc2N1C(=O)CN1CCC(n2nnc3cc(C(F)(F)F)ccc32)CC1 (stereo unspecified)	?	16µM*	-1%	4%	?
COC(=O)c1ccccc1NC(=O)CN1CCC(n2nnc3cc(C(F)(F)F)ccc32)CC1	-1%	-6%	0%	4%	6%
Cc1cc(-c2ccccc2)nc(N/N=C/c2ccccc2)n1	-18%	?	-1%	0%	2%
COc1ccc(/C=N/Nc2nc(C)cc(-c3ccccc3)n2)cc1OC	4%	23µM*	0%	0%	-7%
O=C(CN1CCCN(Cc2ccccc2Cl)S1(=O)=O)NCc1ccccc1	-4%	14%	.	0%	3%
COc1cccc(Cl)c1NC(=O)N1CCN(c2ccnc3cc(Cl)ccc23)CC1	5%	23µM*	0%	5%	-25%
COc1ccc(-c2csc(N3CCN(c4cc(C)nc5ccccc45)CC3)n2)cc1OC	?	13µM*	0%	-1%	21µM*
COc1cccc(Cl)c1NC(=O)N1CCN(c2cc(C)nc3ccccc23)CC1	-2%	23µM*	0%	4%	?
Cc1cc(N2CCN(C(=O)/C=C/C(=O)O)CC2)c2ccccc2n1	-2%	-9%	0%	0%	?
O=C(O)CSC1=NS(=O)(=O)c2ccccc21	.	-3%	.	.	1%
O=C(Nc1ccc(Cl)cc1)Nc1ccccn1	-56%	?	0%	10µM*	-4%
O=C(Nc1ccccc1)Nc1ccccn1	-41%	.	0%	?	2%
O=C(Nc1ccccn1)c1ccc(S(=O)(=O)c2ccc(Cl)cc2)cc1	12%	5.8µM*	0%	3%	-12%
Cc1ccc(-c2nc(NCCCO)c3ccccc3n2)cc1	-3%	6%	0%	4%	-5%
CN(C)CCCNc1c2c(nc3ccccc13)CCC2	24%	5%	0%	-2%	13µM*
OCCCNc1c2ccccc2nc2ccccc12	?	8.2µM*	0%	-1%	?
CCOc1ccc(C(=O)Nc2ccc(C(=O)OCc3cc(=O)n4c(C)csc4n3)cc2)cc1	?	.	.	-1%	?
CC(C)CC(C(=O)NCC1CCN(Cc2ccc(F)cc2)CC1)N1Cc2ccccc2C1=O (stereo unspecified)	-5%	?	.	3%	-20%
O=C(Nc1ccn(Cc2c(F)c(F)c(F)c(F)c2F)n1)c1cccc(Cn2cc([N+](=O)[O-])cn2)c1	-1%	18µM*	0%	8%	-19%
O=C(N1CCc2ccc(S(=O)(=O)N3CCN(S(=O)(=O)c4ccc5c(c4)OCCO5)CC3)cc2C1)C(F)(F)F	.	17%	.	.	-2%
CCC(c1nnnn1CCc1ccccc1)N(Cc1ccco1)Cc1cc2c(C)ccc(C)c2[nH]c1=O (stereo unspecified)	23%	18µM*	0%	4%	?
CCC(c1nnnn1CCc1ccccc1)N(Cc1ccco1)Cc1cc2cc(C)cc(C)c2[nH]c1=O (stereo unspecified)	0%	?	1%	16%	?
CCOC(=O)c1c(-c2ccc(C)o2)csc1NC(=O)CSc1nnc(C)s1	-1%	?	0%	3%	-19%
CCOC(=O)c1c(-c2ccc(C)o2)csc1NC(=O)COC(=O)c1ccc(NC(N)=O)cc1	21%	16µM*	4%	19%	-11%
Cc1c(C(=O)N2CCOCC2)oc2ccc(S(=O)(=O)N3CCCC3)cc12	-5%	-13%	2%	1%	-1%
Cc1c(C(=O)N2CCc3ccccc3C2)oc2ccc(S(=O)(=O)N3CCCCCC3)cc12	0%	15µM*	0%	0%	-4%
CCOC(=O)C1CCN(C(=O)c2oc3ccc(S(=O)(=O)N4CC(C)CC(C)C4)cc3c2C)CC1 (stereo unspecified)	10%	18µM*	0%	0%	?
CCOC(=O)N1CCN(C(=O)c2oc3ccc(S(=O)(=O)N4CC(C)CC(C)C4)cc3c2C)CC1 (stereo unspecified)	-26%	?	3%	0%	-10%
Cc1c(C(=O)N2CCC(C)CC2)oc2ccc(S(=O)(=O)N3CCC4(CC3)OCCO4)cc12	3%	21µM*	0%	0%	18%
CCn1c(CN2CCC(C)CC2)nc2cc(NC(=O)COc3ccc([N+](=O)[O-])cc3)ccc21	-3%	-2%	.	-1%	11%
O=C(NCC1(c2ccccc2)CCCC1)C(=O)NCC1(c2ccccc2)CCCC1	0%	1%	-1%	0%	8%
S=C(NCC1(c2ccccc2)CCCC1)Nc1ccccc1	19%	16µM*	1%	0%	-7%
O=C(OCC(=O)N1CCC(c2ccccc2)=N1)c1ccc([N+](=O)[O-])s1	.	23µM*	0%	13%	?
O=S(=O)(c1ccc(Cl)cc1)c1cnc2ccccc2n1	29%	?	5%	?	-3%
Cc1cc(C)cc(S(=O)(=O)c2cnc3ccccc3n2)c1	11%	9%	0%	22µM*	-4%
O=C(CSc1nnc2ccc3ccccc3n12)c1ccc(F)cc1	-72%	?	0%	13µM*	0%
CCOc1ccc(-c2nnc(SCC(=O)c3ccc(F)cc3)n2-c2ccccc2)cc1	-7%	-16%	.	0%	9%
O=C(CSc1nnc(-c2ccccc2Br)n1-c1ccccc1)c1ccc(F)cc1	24%	18µM*	.	5%	?
CCCCOC(=O)c1ccc(NC(=O)/C(C#N)=C/c2ccc(-c3ccccc3)o2)cc1	-7%	?	.	1%	-13%
CN(C(=O)c1ccc(NC(=O)Cc2ccc(NC(=O)C3CCCN(C(=O)CCc4ccccc4)C3)cc2)cc1)C1CC1 (stereo unspecified)	.	12µM*	1%	4%	-11%
CN(C(=O)c1ccc(NC(=O)Cc2cccc(NC(=O)C3CCCN(C(=O)CCc4ccccc4)C3)c2)cc1)C1CCCC1 (stereo unspecified)	.	15µM*	0%	4%	-15%
CN(C(=O)c1ccc(NC(=O)Cc2cccc(NC(=O)C3CCCN(C(=O)C4CCCC4)C3)c2)cc1)C1CCCC1 (stereo unspecified)	.	18µM*	3%	5%	-11%
CN(C(=O)c1ccc(NC(=O)Cc2cccc(NC(=O)C3CCCN(C(=O)C4CCC4)C3)c2)cc1)C1CC1 (stereo unspecified)	.	-8%	.	1%	8%
